Data on one compound can be found in paper PMC5118412 (Cell Discovery, 2016).

Amino acid sequences for entries named in this document (tags omitted). Residues count along the entry.
UniProt P43220, 24-463: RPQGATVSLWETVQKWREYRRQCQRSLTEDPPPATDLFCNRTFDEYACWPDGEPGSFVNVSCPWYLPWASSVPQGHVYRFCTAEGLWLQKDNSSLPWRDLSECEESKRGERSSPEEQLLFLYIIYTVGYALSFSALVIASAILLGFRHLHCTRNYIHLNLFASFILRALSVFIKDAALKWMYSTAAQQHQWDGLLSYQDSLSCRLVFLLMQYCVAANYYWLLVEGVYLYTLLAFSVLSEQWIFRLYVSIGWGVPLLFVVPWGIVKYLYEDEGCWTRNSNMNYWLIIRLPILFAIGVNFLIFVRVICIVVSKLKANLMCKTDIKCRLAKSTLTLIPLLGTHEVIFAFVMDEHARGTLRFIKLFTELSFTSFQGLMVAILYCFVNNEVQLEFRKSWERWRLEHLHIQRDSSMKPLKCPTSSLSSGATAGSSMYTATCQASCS

The structures appear in SMILES notation.

For the assay, the target named is T1, human GLP-1R (Homo sapiens, UniProt P43220).
T1 construct: expressed in transfected cells
Description: cAMP CRE-NanoLuc reporter assay, stable GLP-1R/NlucP-293 cells, peptide dose response. Type of assay: cell-based. The settings on record: AD293-GLP-1R stable cells, pNL-NlucP-CRE; peptide 30 μM to 0.1 pM, 4 h; two independent experiments, each in triplicate; read-out: EC50 (cAMP signal).

On to `CC[C@H](C)[C@H](NC(=O)[C@H](Cc1ccccc1)NC(=O)[C@H](CCC(=O)O)NC(=O)[C@H](CCCCN)NC(=O)[C@H](C)NC(=O)[C@H](C)NC(=O)[C@H](CCC(N)=O)NC(=O)CNC(=O)[C@H](CCC(=O)O)NC(=O)[C@H](CC(C)C)NC(=O)[C@H](Cc1ccc(O)cc1)NC(=O)[C@H](CO)NC(=O)[C@H](CO)NC(=O)[C@@H](NC(=O)[C@H](CC(=O)O)NC(=O)[C@H](CO)NC(=O)[C@@H](NC(=O)[C@H](Cc1ccccc1)NC(=O)[C@@H](NC(=O)CNC(=O)[C@@H](N)CCC(=O)O)[C@@H](C)O)[C@@H](C)O)C(C)C)C(=O)N[C@@H](C)C(=O)N[C@@H](Cc1c[nH]c2ccccc12)C(=O)N[C@@H](CC(C)C)C(=O)N[C@H](C(=O)N[C@@H](CCCCN)C(=O)NCC(=O)N[C@@H](CCCNC(=N)N)C(=O)NCC(=O)O)C(C)C` [GLP-1(9-37)], for which the EC50 amounted to 262 nM.
